The record followed here is patent US20090181972A1, “Novel Inhibitors of Cysteine Proteases, the Pharmaceutical Compositions Thereof and their Therapeutic Applications” (priority 2005, published 2009).

Amino acid sequences for entries named in this document (tags omitted).
UniProt P15374, whole entry: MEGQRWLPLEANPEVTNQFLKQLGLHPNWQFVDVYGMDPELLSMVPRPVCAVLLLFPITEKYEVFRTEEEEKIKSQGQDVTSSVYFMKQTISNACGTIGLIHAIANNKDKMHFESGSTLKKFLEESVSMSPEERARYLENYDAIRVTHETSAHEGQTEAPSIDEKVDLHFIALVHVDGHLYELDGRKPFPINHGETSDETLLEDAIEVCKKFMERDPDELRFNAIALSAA
UniProt Q93009, whole entry: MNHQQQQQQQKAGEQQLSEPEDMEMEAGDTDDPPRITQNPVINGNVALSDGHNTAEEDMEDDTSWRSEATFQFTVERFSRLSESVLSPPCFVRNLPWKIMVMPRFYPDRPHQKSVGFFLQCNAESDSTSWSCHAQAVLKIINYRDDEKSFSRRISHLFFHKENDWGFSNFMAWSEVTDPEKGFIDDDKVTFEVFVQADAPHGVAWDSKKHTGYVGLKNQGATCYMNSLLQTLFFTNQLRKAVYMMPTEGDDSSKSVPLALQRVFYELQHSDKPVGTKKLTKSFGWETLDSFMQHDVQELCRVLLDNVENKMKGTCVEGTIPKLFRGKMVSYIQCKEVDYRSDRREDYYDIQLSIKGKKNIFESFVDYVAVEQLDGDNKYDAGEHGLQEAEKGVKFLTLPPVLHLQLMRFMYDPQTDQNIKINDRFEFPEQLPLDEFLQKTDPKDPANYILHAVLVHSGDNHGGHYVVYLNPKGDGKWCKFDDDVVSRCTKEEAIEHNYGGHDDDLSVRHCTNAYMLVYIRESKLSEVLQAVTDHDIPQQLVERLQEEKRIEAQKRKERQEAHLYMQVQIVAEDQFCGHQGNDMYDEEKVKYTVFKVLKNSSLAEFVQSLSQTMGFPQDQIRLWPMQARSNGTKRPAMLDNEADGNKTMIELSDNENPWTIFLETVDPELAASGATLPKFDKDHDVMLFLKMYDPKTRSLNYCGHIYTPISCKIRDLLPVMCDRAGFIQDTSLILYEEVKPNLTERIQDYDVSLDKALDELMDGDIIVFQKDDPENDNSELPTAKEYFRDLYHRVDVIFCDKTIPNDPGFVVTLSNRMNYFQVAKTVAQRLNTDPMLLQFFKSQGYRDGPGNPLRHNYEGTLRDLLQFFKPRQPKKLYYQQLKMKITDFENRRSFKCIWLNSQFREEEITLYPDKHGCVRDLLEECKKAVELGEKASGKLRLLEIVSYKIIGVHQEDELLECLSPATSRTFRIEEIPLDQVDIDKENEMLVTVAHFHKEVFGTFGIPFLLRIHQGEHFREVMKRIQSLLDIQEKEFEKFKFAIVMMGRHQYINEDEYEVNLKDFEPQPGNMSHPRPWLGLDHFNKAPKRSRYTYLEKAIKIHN
UniProt P45974, whole entry: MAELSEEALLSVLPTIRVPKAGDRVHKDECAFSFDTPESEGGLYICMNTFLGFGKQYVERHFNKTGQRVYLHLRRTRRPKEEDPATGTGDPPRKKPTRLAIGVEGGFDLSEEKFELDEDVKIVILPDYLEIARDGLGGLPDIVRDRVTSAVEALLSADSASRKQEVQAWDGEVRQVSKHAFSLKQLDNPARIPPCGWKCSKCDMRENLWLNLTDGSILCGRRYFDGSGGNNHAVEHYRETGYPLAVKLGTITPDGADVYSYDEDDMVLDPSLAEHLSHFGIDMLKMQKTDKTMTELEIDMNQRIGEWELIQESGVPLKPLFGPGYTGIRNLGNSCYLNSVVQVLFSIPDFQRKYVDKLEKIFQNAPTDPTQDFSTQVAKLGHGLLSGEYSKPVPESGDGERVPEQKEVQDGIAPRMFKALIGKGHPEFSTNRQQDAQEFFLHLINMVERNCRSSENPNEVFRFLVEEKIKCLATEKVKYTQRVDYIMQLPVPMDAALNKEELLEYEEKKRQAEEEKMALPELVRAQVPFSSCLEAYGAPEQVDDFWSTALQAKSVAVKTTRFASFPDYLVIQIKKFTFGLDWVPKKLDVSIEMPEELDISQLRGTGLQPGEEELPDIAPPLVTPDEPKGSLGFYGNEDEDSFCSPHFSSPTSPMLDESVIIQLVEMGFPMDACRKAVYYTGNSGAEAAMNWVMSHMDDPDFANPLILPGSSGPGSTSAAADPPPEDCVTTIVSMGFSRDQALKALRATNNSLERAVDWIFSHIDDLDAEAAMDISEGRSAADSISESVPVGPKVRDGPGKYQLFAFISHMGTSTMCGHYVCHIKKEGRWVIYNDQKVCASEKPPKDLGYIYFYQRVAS
UniProt P40818, whole entry: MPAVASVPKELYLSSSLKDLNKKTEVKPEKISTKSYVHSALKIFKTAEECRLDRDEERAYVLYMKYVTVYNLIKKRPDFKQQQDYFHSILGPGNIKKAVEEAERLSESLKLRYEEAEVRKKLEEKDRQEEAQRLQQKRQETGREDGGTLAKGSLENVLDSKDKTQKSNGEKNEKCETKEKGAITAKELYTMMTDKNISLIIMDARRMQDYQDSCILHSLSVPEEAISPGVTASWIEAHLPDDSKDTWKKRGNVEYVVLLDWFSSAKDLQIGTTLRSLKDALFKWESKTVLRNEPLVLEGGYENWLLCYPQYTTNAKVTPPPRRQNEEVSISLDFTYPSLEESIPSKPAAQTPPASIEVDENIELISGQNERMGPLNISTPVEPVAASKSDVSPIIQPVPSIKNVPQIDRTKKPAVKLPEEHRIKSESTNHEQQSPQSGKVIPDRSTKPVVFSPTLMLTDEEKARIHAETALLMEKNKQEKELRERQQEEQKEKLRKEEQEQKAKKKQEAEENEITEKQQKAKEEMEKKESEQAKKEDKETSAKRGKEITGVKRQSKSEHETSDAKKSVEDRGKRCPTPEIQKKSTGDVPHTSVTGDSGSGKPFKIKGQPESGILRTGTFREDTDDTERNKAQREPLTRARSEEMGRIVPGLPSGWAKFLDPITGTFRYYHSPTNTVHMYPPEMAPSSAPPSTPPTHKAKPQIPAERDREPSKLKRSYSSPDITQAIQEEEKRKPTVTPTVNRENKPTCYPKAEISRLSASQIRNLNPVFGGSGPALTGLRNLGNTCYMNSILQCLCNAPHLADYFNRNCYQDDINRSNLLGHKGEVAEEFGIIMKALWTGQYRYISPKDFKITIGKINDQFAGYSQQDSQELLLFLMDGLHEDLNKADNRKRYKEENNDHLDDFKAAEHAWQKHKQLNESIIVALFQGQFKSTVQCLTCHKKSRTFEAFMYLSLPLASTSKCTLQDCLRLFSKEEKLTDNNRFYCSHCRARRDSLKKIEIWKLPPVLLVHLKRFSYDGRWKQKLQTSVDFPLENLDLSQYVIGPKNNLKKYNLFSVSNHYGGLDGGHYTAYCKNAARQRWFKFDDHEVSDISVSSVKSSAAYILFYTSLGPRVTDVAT

Each structure is given as a SMILES string.

In test [1] the test system is HCT116 colon cancer cells. Description: HCT116 cell viability and proliferation assay (MTS). To be noted: read-out: HCT116 GI50 D3, 72 hours incubation, mean of three independent experiments. As for the experimental part:
HCT116 colon cancer cells were obtained from ATCC (American Type Culture Collection), and maintained in Mc Coy's 5A medium containing 10% FBS, 3 mM glutamine and 1% penicillin/streptomycin. Cells were incubated at 37° C. in a humidified atmosphere containing 5% CO2.
Cell viability was assayed using the MTS technique in 96-well culture plates (CellTiter 96® Aqueous Non-Radioactive Cell Proliferation Assay, Promega) according to the manufacturer's instructions. MTS (3-(4,5-dimethyl-thiazol-2-yl)-5-(3-carboxymethoxyphenyl)-2-(4-sulfophenyl)-2H-tetra-zolium) is a MTT-derived tetrazolium that is reduced in metabolically active cells into a soluble, cell-permeant formazan. The amount of formazan, detected by its absorbance at 492 nm is proportional to the number of living, metabolically active cells.
10^3 HCT116 cells were seeded per well. 24 hours later, the medium was changed and the cells treated in triplicate with the following concentrations of each compound: 10 μM-3.33 μM-1.11 μM-370 nM-123 nM-41 nM-14 nM and 5 nM. […]
Cells were incubated with the compounds for 72 hours, and their viability then assayed by the addition of MTS for 2 hours. Absorbance at 492 nm was measured directly from the 96-well culture plates. G150 (Growth Inhibition 50) concentrations for each compound were calculated using a sigmoidal variable slope fit (Prism 4.0, Graphpad Softwares). […]

For a further test, the target named is Uch-L3 (Homo sapiens, UniProt P15374). Description: UCH-L3 activity assay. The following applies: read-out: Uch-L3; 400 nM Ub-AMC, 13 pM enzyme; pre-incubated 30 minutes at 25° C., 60 minutes at 37° C.; sigmoidal fit. As for the experimental part:
Uch-L3 was diluted in USP buffer (50 mM Tris HCl; 0.5 mM EDTA; 5 mM DTT; 0.01% Triton X-100; Bovine Serum Albumin 0.05 mg.ml^−1 pH 7.6). Compounds stocks (100 mM) were stored at −20° C. in DMSO. Compounds were tested at the following final concentrations: 100 μM; 33.3 μM; 11.1 μM; 3.7 μM; 1.23 μM; 412 nM; 137 nM; 45.7 nM; 15.2 nM; 5 nM.
Reactions were performed as duplicates in Black LJL 96 well plates (HE microplates; Molecular Devices; 20 μl final reaction volume). The substrate concentration for Uch-L3 was 400 nM Ub-AMC (Boston Biochem). The concentration of the enzyme (Uch-L3) in specificity assays was 13 pM. The concentrations were determined in order to perform specificity assays under initial velocities at fixed substrate concentration. Compounds were pre-incubated with enzymes for 30 minutes at 25° C. Reactions were initiated by addition of substrate to the plates containing the enzymes (+/− compounds) diluted in assay buffer. Reactions were incubated for 60 minutes at 37° C. Reactions were stopped by adding acetic acid (100 mM final). Readings were performed on a Pherastar Fluorescent Reader (BMG). δ Emission 380 nm; δ Excitation=460 nm. Data (mean values +/− standard deviation) were analyzed as % of control (no compound) and plotted as percentage versus the Log of the compound concentration using GraphPad (Prism). Data were fitted to a sigmoidal model (variable slope).

A further test deals with Cathepsin B (Homo sapiens, UniProt P07858). The test is described as follows: Cathepsin B activity assay. The following applies: read-out: Cathepsin B; 36 μM z-RR-AMC, 3.6 nM enzyme; pre-incubated 30 minutes at 25° C., 60 minutes at 37° C.; sigmoidal fit. As for the experimental part: Cathepsin B was diluted in Cathepsin B buffer (20 mM Tris HCl pH 6.8; 1 mM EDTA; 1 mM DTT). Compounds stocks (100 mM) were stored at −20° C. in DMSO. Compounds were tested at the following final concentrations: 100 μM; 33.3 μM; 11.1 μM; 3.7 μM; 1.23 μM; 412 nM; 137 nM; 45.7 nM; 15.2 nM; 5 nM. Reactions were performed as duplicates in Black LJL 96 well plates (HE microplates; Molecular Devices; 20 μl final reaction volume). The substrate concentration for cathepsin B specificity assay was 36 μM (z-RR-AMC; Calbiochem). The concentration of the enzyme (Cathepsin B) in specificity assays was 3.6 nM. The concentrations were determined in order to perform specificity assays under initial velocities at fixed substrate concentration. Compounds were pre-incubated with enzymes for 30 minutes at 25° C. Reactions were initiated by addition of substrate to the plates containing the enzymes (+/− compounds) diluted in assay buffer. Reactions were incubated for 60 minutes at 37° C. Reactions were stopped by adding acetic acid (100 mM final). Readings were performed on a Pherastar Fluorescent Reader (BMG). δ Emission 380 nm; δ Excitation=460 nm. Data (mean values +/− standard deviation) were analyzed as % of control (no compound) and plotted as percentage versus the Log of the compound concentration using GraphPad (Prism). Data were fitted to a sigmoidal model (variable slope).

Another test deals with USP7 (Homo sapiens, UniProt Q93009). Description: USP7 activity assay. The following applies: read-out: USP 7; 400 nM Ub-AMC, 152 pM enzyme; pre-incubated 30 minutes at 25° C., 60 minutes at 37° C.; sigmoidal fit. The source says: The cDNA encoding USP7 was obtained by PCR amplification from placenta mRNA. USP7 cDNA was subcloned by PCR into a baculovirus expression vector (pFastBac-HT; Invitrogen). A cDNA encoding a mutated USP7 was generated by mutagenic PCR. The corresponding protein encodes a cysteine to alanine substitution at residue 223. The sequences were ascertained by sequencing of the entire open reading frame. Bacmids encoding USP7 were generated following DH10bac transposition. The corresponding bacmids were transfected into insect cells (Sf9). Viruses were recovered from culture supernatant and amplified twice. Insect cells (Sf9 or High Five; lnvitrogen) were infected for 72 hours. […] Proteins purifications were analyzed on 4-12% NuPAGE (Invitrogen). […]
Reactions were performed as duplicates in Black LJL 96 well plates (HE microplates; Molecular Devices; 20 μl final reaction volume). […] The concentrations were determined in order to perform specificity assays under initial velocities at fixed substrate concentration. […] Readings were performed on a Pherastar Fluorescent Reader (BMG). λ Emission 380 nm; λ Excitation=460 nm. Data (mean values +/− standard deviation) were analyzed as % of control (no compound) and plotted as percentage versus the Log of the compound concentration using GraphPad (Prism). […]

The subject of test [2] is PC-3 prostate cancer cells. The test is described as follows: PC3 cell viability and proliferation assay (MTS). The following applies: read-out: PC3 GI50 D3, 72 hours incubation, mean of three independent experiments. As for the experimental part: PC-3 prostate cancer cells were obtained from ATCC, and maintained in F-12K medium containing 7% FBS and 1% penicillin/streptomycin. Cells were incubated at 37° C. in a humidified atmosphere containing 5% CO2.
Cell viability was assayed using the MTS technique in 96-well culture plates (CellTiter 96® Aqueous Non-Radioactive Cell Proliferation Assay, Promega) according to the manufacturer's instructions. MTS (3-(4,5-dimethyl-thiazol-2-yl)-5-(3-carboxymethoxyphenyl)-2-(4-sulfophenyl)-2H-tetrazolium) is a MTT-derived tetrazolium that is reduced in metabolically active cells into a soluble, cell-permeant formazan. The amount of formazan, detected by its absorbance at 492 nm is proportional to the number of living, metabolically active cells.
2×10^3 PC3 cells were seeded per well. 24 hours later, the medium was changed and the cells treated in triplicate with the following concentrations of each compound: 10 μM-3.33 μM-1.11 μM-370 nM-123 nM-41 nM-14 nM and 5 nM. […]
Cells were incubated with the compounds for 72 hours, and their viability then assayed by the addition of MTS for 2 hours. Absorbance at 492 nm was measured directly from the 96-well culture plates. GI50 (Growth Inhibition 50) concentrations for each compound were calculated using a sigmoidal variable slope fit (Prism 4.0, Graphpad Softwares). […]

For another test, the target named is USP5 (Homo sapiens, UniProt P45974). The test is described as follows: USP5 activity assay. The following applies: read-out: USP 5; 400 nM Ub-AMC, 300 pM enzyme; pre-incubated 30 minutes at 25° C., 60 minutes at 37° C.; sigmoidal fit.
A further test concerns the target USP8 (Homo sapiens, UniProt P40818). The test is described as follows: USP8 activity assay. The following applies: read-out: USP 8; 400 nM Ub-AMC, 630 pM enzyme, pH8.8; pre-incubated 30 minutes at 25° C., 60 minutes at 37° C.; sigmoidal fit.

One may read the GI50 as the concentration at which growth is held to half of that of the control. As to `O=C1c2ccccc2-c2nc3nnc(Cl)n3nc21`, the GI50 in test [1] is 581 nM; in test [2], 983 nM. The IC50 was 133 nM on Uch-L3; 12000 nM at Cathepsin B; 2600 nM on USP7; 549 nM at USP5; 128 nM at USP8.
